The values that follow come from patent US6326390A (King Pharmaceuticals Reseach and Development, Inc., priority 1999, dated 2001).

By UniProt entry, the sequences of proteins in these tests, tags left out. Where a name states a change or a piece, a line headed by the entry shows the natural chain unless it says otherwise.
UniProt P0DMS8, whole entry: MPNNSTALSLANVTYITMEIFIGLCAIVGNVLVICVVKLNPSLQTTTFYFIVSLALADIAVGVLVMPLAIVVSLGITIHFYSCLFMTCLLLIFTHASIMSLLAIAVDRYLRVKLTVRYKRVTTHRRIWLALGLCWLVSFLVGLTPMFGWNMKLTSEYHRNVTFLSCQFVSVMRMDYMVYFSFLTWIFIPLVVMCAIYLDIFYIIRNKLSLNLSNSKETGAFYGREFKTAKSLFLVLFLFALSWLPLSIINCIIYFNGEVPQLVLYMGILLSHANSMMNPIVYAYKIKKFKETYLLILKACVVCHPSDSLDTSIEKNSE
UniProt P30543, whole entry: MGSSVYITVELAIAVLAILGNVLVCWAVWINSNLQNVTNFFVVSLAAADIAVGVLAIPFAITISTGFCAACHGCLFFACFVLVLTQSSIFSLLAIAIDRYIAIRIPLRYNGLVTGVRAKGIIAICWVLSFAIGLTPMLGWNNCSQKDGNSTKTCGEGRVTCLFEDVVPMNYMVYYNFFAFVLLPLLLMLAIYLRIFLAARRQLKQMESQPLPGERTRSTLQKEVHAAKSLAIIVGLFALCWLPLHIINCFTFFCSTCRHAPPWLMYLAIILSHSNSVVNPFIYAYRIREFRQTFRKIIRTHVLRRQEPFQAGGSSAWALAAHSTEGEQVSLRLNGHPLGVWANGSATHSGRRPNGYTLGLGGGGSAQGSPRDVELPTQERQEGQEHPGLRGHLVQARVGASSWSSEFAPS

Molecules are shown by their SMILES.

In general, Kd refers to the constant that tells how readily two partners part at equilibrium. Broadly, the Ki is a measure of affinity in units of concentration, obtained from inhibition or displacement.

Test [1] addresses T1, adenosine A3 receptors in Jurkat cell membranes (Homo sapiens, UniProt P0DMS8).
T1 construct: characterization of A3 receptors in some human tumor cell lines; endogenous in cells; host or cells: Jurkat (human T-cell leukaemia), membranes
The test can be described thus: Saturation of Compound 1 binding to A3 receptors in Jurkat cell membranes. The following applies: 0.2 to 15 nM, n=3. An excerpt: (§1) FIGS. 3 and 4 are graphs showing the saturation of the binding of a tritiated analogue of 5-[[(4-Methoxyphenyl)amino]carbonyl]amino-8-propyl-2-(2-furyl)-pyrazolo[4,3-e] 1,2,4-triazolo[1,5-c]pyrimidine (Compound 1) (fmol/mg protein) to A3 receptors expressed in the JURKAT cell line versus the molar concentration of compound 1. […] For example, approximately 1300 fmol/mg protein was detected in Jurkat cells and 650 fmol/mg protein was detected in HL60 cells. […] These findings have facilitated the determination of the presence of A3 receptors in many human tumors.
(§2) The following experiments described for the first time, the characterization of A3 receptors in some human tumor cell lines such as HL60, a promyelocytic human leukaemia and Jurkat, a human T-cell leukaemia, by using the selective antagonist (Compound 1) described herein. In these studies, membranes (0.5 mg protein/ml) from Jurkat and HL60 cells were incubated with 10-12 different concentrations of the compound described above ranging from 0.2 to 15 nM and 0.1 to 10 nM for Jurkat and HL60 cells, respectively.

The target of test [2] is T2, adenosine A3 receptors in HL60 membranes (Homo sapiens, UniProt P0DMS8).
T2 construct: characterization of A3 receptors in some human tumor cell lines; endogenous in cells; host or cells: HL60 (human promyelocytic leukaemia), membranes
The test can be described thus: Saturation of Compound 1 binding to A3 receptors in HL60 membranes. The following applies: 0.1 to 10 nM, n=3.
Excerpt: as §1, §2

In test [3] the target is rat A2A adenosine receptor (striatum membranes) (Rattus norvegicus, UniProt P30543). As to conditions: read-out: rA2A (Ki), [^3 H]SCH58261 0.2 nM, 1,658-2,397 in parentheses on next line.
The target in test [4] is human A3 adenosine receptor (Homo sapiens, UniProt P0DMS8).

On to `CCCn1cc2c(nc(NC(=O)Nc3ccc(OC)cc3)n3nc(-c4ccco4)nc23)n1` [Compound 1, 5-[[(4-Methoxyphenyl)amino]carbonyl]amino-8-propyl-2-(2-furyl)-pyrazolo[4,3-e] 1,2,4-triazolo[1,5-c]pyrimidine], for which the Kd in test [1] is 1.9 ± 0.2 nM; in test [2] it was 1.2 ± 0.1 nM. Besides, the Ki turned out to be 1990 nM in test [3] and 0.29 nM in test [4] (read-out: hA3 (Ki), HEK-293 cells transfected with human recombinant A3, [^125 I]AB-MECA, (0.27-0.32) on next line). Moreover, the “affinity and selectivity for the human adenosine A3 receptor subtype” value in test [4] (in words) was “relatively high affinity and selectivity”. Also, the “rA1 /hA3” value in test [4] (ratio of Ki values, rat A1 over human A3) is given as > 34,482. Besides, the “rA2A /hA3” value in test [4] (ratio of Ki values, rat A2A over human A3) is on record as 6,872.
